Assay results taken from PubChem BioAssay AID1007 (NMMLSC, 2008).
The entries are a selection whose mix differs from that of the whole data set. Activity calls are given as the source filed them. No stated cut-off is given here; in the data, active means inhibition above about 40%.

Amino acid sequences for entries named in this document (tags omitted).
UniProt Q07817, whole entry, looked up: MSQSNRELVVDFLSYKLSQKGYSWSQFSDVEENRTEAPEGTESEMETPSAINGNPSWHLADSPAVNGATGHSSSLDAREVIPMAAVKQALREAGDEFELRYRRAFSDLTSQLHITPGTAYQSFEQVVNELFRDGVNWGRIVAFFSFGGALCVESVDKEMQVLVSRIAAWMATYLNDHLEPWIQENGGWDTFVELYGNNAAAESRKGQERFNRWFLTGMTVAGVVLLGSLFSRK

biological target: Bcl-2-like protein 1 (Homo sapiens) (UniProt Q07817); assay: inhibitors of Bim-Bcl-XL binding, primary screen, biochemical, multiplexed, bead flow cytometry, human Bcl-XL (AID 1007); settings: Bim peptide-Bcl-XL binding, fluorescence, at 10 µM, hits give high values

Structure (SMILES) | inhibition
c1ccc(-c2nn[nH]n2)c(-c2nn[nH]n2)c1 | inactive: 9%
CCOC(=O)NC(Sc1ccccc1)C(Cl)(Cl)Cl (stereo not given) | inactive: 0%
COC(=O)c1cc2c(s1)N=C(c1ccccc1)N(C)P2(=O)N1CCOCC1 (stereo not given) | inactive: -1%
CC(=O)NC(SC(=S)N(CC(C)C)CC(C)C)C(Cl)(Cl)Cl (stereo not given) | inactive: -7%
Cc1ccc(OP(=O)(Nc2ccccn2)Oc2ccc(C)cc2)cc1 | inactive: 0%
CCC(=O)N1C2C3N(C(=O)CC)C1C1N(C(=O)CC)C(C(N1C(=O)CC)N3C(=O)CC)N2C(=O)CC | inactive: 9%
O=c1c2cc([N+](=O)[O-])ccc2[nH]c2c([N+](=O)[O-])cc([N+](=O)[O-])cc12 | inactive: -2%
O=P(Nc1ccccn1)(c1ccc(Br)cc1)c1ccc(Br)cc1 | inactive: -3%
CC(=O)NC(SC(=S)N(C)C)C(Cl)(Cl)Cl (stereo not given) | inactive: -10%
C(Cc1nn[nH]n1)Cc1nn[nH]n1 | inactive: -5%
O=C(OC1CN2CCC1CC2)c1cccc(Cl)c1 (stereo not given) | inactive: -2%
CC(C)C(=O)NC(Sc1ccccc1)C(Cl)(Cl)Cl (stereo not given) | inactive: -8%
O=P(Nc1nccs1)(c1ccccc1)c1ccccc1 | inactive: -2%
c1nnnn1CCn1cnnn1 | inactive: -3%
O=P1(Nc2ccccn2)COc2ccccc2OC1 | inactive: -1%
Clc1n[nH]nc1-c1nn[nH][15n]1 | inactive: -10%
CC(C)/C=N\N=C(\N)N[N+](=O)[O-] | inactive: -6%
CN(C(=O)Cc1ccc(Cl)c(Cl)c1)[C@@H]1CCCC[C@H]1N1CCCC1 | inactive: 1%
Cc1nn(-c2ccccc2)c2c1P(=O)(N1CCOCC1)N(C)C(c1ccccc1)=N2 (stereo not given) | inactive: -3%
CC1CCC(C(C)C)C(OP(=O)(Nc2ccccn2)c2ccccc2)C1 (stereo not given) | inactive: -1%
CN(C)C1(CNC(=O)c2ccc(S(C)(=O)=O)cc2)CCCCC1 | inactive: -2%
O=P1(Nc2ncccn2)COc2ccccc2OC1 | inactive: -8%
O=P1(Nc2ccc(Br)cn2)COc2ccccc2OC1 | inactive: -3%
Cc1ccc(OCC(=O)OC2CN3CCC2CC3)cc1 (stereo not given) | inactive: 1%
CCOP1(=S)c2c(C)nn(CCC#N)c2N=C(c2ccccc2F)N1C (stereo not given) | inactive: -5%

Structure (SMILES) | inhibition
O=P(Nc1nccs1)(c1ccccc1)c1nc2ccccc2s1 (stereo not given) | inactive: -5%
O=P(Nc1nccs1)(Oc1ccccc1)Oc1ccccc1 | inactive: -1%
O=[N+]([O-])c1ccc2c(c1)nnn2O | inactive: 0%
CCOP1(=S)c2c(C)nn(CCC#N)c2N=C(c2ccc(F)cc2)N1C (stereo not given) | inactive: -13%
COc1cc(C(=O)NCC2(N3CCOCC3)CCCCC2)cc(Cl)c1OC(C)C | inactive: -2%
Cc1cccc(OCC(=O)OC2CN3CCC2CC3)c1 (stereo not given) | inactive: 2%
Cc1ccc(NCCc2c([N+](=O)[O-])cc([N+](=O)[O-])cc2[N+](=O)[O-])cc1 | inactive: -5%
COc1cc(C2NCCC3(OCCO3)C2(C)C)cc(OC)c1OC (stereo not given) | inactive: 1%
CCOP(=O)(Nc1cccc2ccccc12)OCC | inactive: -6%
O=C(OC1CN2CCC1CC2)C12CC3CC(CC(C3)C1)C2 (stereo not given) | inactive: -5%
Cc1cc(=O)[nH]c(N[N+](=O)[O-])n1 | inactive: -2%
Cc1c2c(nc3ccccc13)SC(C(Cl)Cl)C2 (stereo not given) | inactive: -7%
COc1ccc2nc(NP(=O)(c3ccccc3)c3ccccc3)sc2c1 | inactive: -2%
COc1ccc(N/C(=N/P(=O)(N2CCOCC2)N2CCOCC2)N2CCOCC2)cc1 | inactive: -3%
Cc1ccc2nc3c(c(C)c2c1)CC(C(Cl)Cl)S3 (stereo not given) | inactive: -9%
ClCCSc1nnc(-c2cccnc2)o1 | inactive: -9%
CCN(CC)C(=S)SC(NC=O)C(Cl)(Cl)Cl (stereo not given) | inactive: -2%
CC(C)NC(=O)NP(=O)(Oc1ccccc1)Oc1ccccc1 | inactive: -2%
O=[N+]([O-])c1cc([N+](=O)[O-])c(-c2ccn[nH]2)s1 | inactive: -8%
Cc1cc(SC(NC(=O)c2ccccc2)C(Cl)(Cl)Cl)nc(C(C)C)n1 (stereo not given) | inactive: -10%
O=P(Nc1ccccn1)(c1cccc2ccccc12)c1cccc2ccccc12 | inactive: -5%
Cc1cc(SC(NC=O)C(Cl)(Cl)Cl)ncn1 (stereo not given) | inactive: -8%
COP1(=S)c2c(C)nn(CCC#N)c2N=C(c2ccc(F)cc2)N1C (stereo not given) | inactive: -1%
O=C(COc1ccccc1)OC1CN2CCC1CC2 (stereo not given) | inactive: 0%
CCC(C)N(CC(C)C)C(=S)SC(NC(C)=O)C(Cl)(Cl)Cl (stereo not given) | inactive: -2%
